Reference: EPA's ToxRefDB 2

Key:
[1] = test system: rabbit; conditions: Prenatal developmental toxicity study, new zealand white, Oral, Gavage/Intubation, dose end: 13 day
[2] = test system: rat; conditions: Prenatal developmental toxicity study, sprague dawley, Oral, Gavage/Intubation, dose end: 12 day
[3] = test system: rat; conditions: Prenatal developmental toxicity study, sprague dawley, Injection, Subcutaneous, group: maternal
[4] = test system: rat; conditions: Prenatal developmental toxicity study, sprague dawley, Oral, Gavage/Intubation, dose end: 21 PND
[5] = test system: rat; conditions: Prenatal developmental toxicity study; long evans; Oral; Feed; dose end: 115 day; group: maternal; reproductive / reproductive performance / pregnancy / pregnancy + systemic / organ weight / ovary / absolute + reproductive / offspring …
[6] = test system: mouse; conditions: Prenatal developmental toxicity study; Oral; Feed; dose end: 109 day; group: maternal; reproductive / reproductive performance / pregnancy / pregnancy + systemic / organ weight / ovary / absolute + systemic / in life …
[7] = test system: rat; conditions: Prenatal developmental toxicity study; long evans; Oral; Feed; dose end: 0 PND; group: maternal; reproductive / reproductive performance / estrous cycle / abnormal + reproductive / reproductive performance / gestational length / …
[8] = test system: mouse; conditions: Prenatal developmental toxicity study; Oral; Feed; dose end: 0 PND; group: maternal; reproductive / reproductive performance / gestational length / gestational length + systemic / in life observation / mortality / mortality
[9] = test system: rat; conditions: Prenatal developmental toxicity study, long evans, Oral, Water, dose end: 20 PND
[10] = test system: rat; conditions: Prenatal developmental toxicity study, long evans, Oral, Water, dose end: 20 PND; remark: listed apart in the source
[11] = test system: rabbit; conditions: Prenatal developmental toxicity study; new zealand white; Oral; Feed; dose end: 29 day; group: maternal; systemic / in life observation / body weight / body weight gain + systemic / in life observation / food consumption / food consumption
[12] = group: developmental, systemic / in life observation / body weight / fetal weight
[13] = group: maternal, reproductive / reproductive performance / aborted / aborted + systemic / in life observation / body weight / body weight + systemic / in …
[14] = group: maternal, systemic / in life observation / mortality / mortality
[15] = group: maternal, reproductive / offspring survival early / dead fetuses / dead fetuses + systemic / in life observation / body weight / body weight + …
[16] = group: maternal, systemic / in life observation / body weight / body weight + systemic / in life observation / body weight / body weight gain
[17] = reproductive / reproductive performance / estrous cycle / abnormal + systemic / in life observation / body weight / body weight gain + …
[18] = group: developmental, developmental / developmental landmark / eye opening / eye opening + systemic / in life observation / body weight / offspring (pup) weight…
[19] = group: maternal, systemic / in life observation / body weight / body weight gain
[20] = group: maternal, systemic / in life observation / body weight / body weight gain + systemic / in life observation / mortality / mortality + reproductive / …
[21] = group: developmental, systemic / hematology / erythrocyte (rbc) count differential / erythrocyte (rbc) + systemic / hematology / hemoglobin (hgb) / hemoglobin (…
[22] = group: developmental, systemic / hematology / mean corpuscular (cell) volume (mcv) / mean corpuscular (cell) volume (mcv)
[23] = group: maternal, systemic / in life observation / water consumption / water consumption
[24] = group: developmental, developmental / offspring survival late / [other] / [other] + systemic / clinical chemistry / lipids, total / lipids, total + systemic / …
[25] = group: maternal, systemic / in life observation / body weight / body weight + systemic / in life observation / water consumption / water consumption

`CCC(CC)Nc1cc(C)nc(Oc2c(C)cc(C)cc2C)c1C` was tested, and the LEL [1, 12] was 50 mg/kg/day, the LOAEL [1, 12] was over 100 mg/kg/day and the NOAEL [1, 12] was at least 100 mg/kg/day. For the same molecule, the LOAEL [1, 13] was over 100 mg/kg/day, the NOAEL [1, 13] was at least 100 mg/kg/day and the LEL [1, 14] was 10 mg/kg/day. For the same molecule, the NEL [1, 14] was under 10 mg/kg/day.
`CCOc1cccc(C2(N3CCN(c4ccccc4)CC3)CCC(C)CC2)c1.CS(=O)(=O)O` (stereo not drawn) gave an LEL [2, 12] of 25 mg/kg/day, an LOAEL [2, 12] of over 255 mg/kg/day and an NEL [2, 12] of under 25 mg/kg/day. For the same molecule, the NOAEL [2, 12] was at least 255 mg/kg/day, the LOAEL [2, 15] was over 255 mg/kg/day and the NOAEL [2, 15] was at least 255 mg/kg/day. The LEL [2, 16] was 25 mg/kg/day and the NEL [2, 16] was under 25 mg/kg/day.
For `ClC1=C(Cl)C2(Cl)C3C(Cl)C=CC3C1(Cl)C2(Cl)Cl` (stereo not drawn) [Heptachlor], the NEL ([3]; reproductive / reproductive performance / estrous cycle / abnormal + systemic / in life observation / body weight / body weight gain) was 5 mg/kg/day, the LEL [3, 17] was 20 mg/kg/day and the LOAEL [3, 17] was over 20 mg/kg/day. It also gave an NOAEL [3, 17] of at least 20 mg/kg/day, an LEL [4, 18] of 5 mg/kg/day and an LOAEL [4, 18] of over 5 mg/kg/day. For the same molecule, the NEL [4, 18] was 0.5 mg/kg/day, the NOAEL [4, 18] was at least 5 mg/kg/day and the LEL [4, 19] was 0.5 mg/kg/day. The NEL [4, 19] was under 0.5 mg/kg/day, the LOAEL [4, 20] was over 5 mg/kg/day and the NOAEL [4, 20] was at least 5 mg/kg/day.
For `CC#C[C@]1(O)CC[C@H]2[C@@H]3CCC4=CC(=O)CCC4=C3[C@@H](c3ccc(N(C)C)cc3)C[C@@]21C` [Mifepristone], the LEL [5] was 150 mg/kg/day, the LOAEL [5] was over 150 mg/kg/day and the NEL [5] was under 150 mg/kg/day. It also gave an NOAEL [5] of at least 150 mg/kg/day, an LEL [6] of 150 mg/kg/day and an LOAEL [6] of over 150 mg/kg/day. The NEL [6] was under 150 mg/kg/day, the NOAEL [6] was at least 150 mg/kg/day and the LEL [7] was 150 mg/kg/day. It also gave an LOAEL [7] of over 150 mg/kg/day, an NEL [7] of under 150 mg/kg/day and an NOAEL [7] of at least 150 mg/kg/day. For the same molecule, the LEL [8] was 150 mg/kg/day, the LOAEL [8] was over 150 mg/kg/day and the NEL [8] was under 150 mg/kg/day. The NOAEL [8] was at least 150 mg/kg/day.
Molecule `O=N[O-].[Na+]` [Sodium nitrite] has an LOAEL [9, 21] of over 100 mg/kg/day, an NOAEL [9, 21] of at least 100 mg/kg/day and an LEL [9, 22] of 25.1 mg/kg/day. It also gave an NEL [9, 22] of under 25.1 mg/kg/day, an LEL [9, 23] of 100 mg/kg/day and an LOAEL [9, 23] of over 100 mg/kg/day. The NEL [9, 23] was 50 mg/kg/day, the NOAEL [9, 23] was at least 100 mg/kg/day and the LEL [10, 24] was 320 mg/kg/day. It also gave an LOAEL [10, 24] of over 407 mg/kg/day, an NEL [10, 24] of under 320 mg/kg/day and an NOAEL [10, 24] of at least 407 mg/kg/day. For the same molecule, the LEL [10, 25] was 320 mg/kg/day, the LOAEL [10, 25] was over 407 mg/kg/day and the NEL [10, 25] was under 320 mg/kg/day. For the same molecule, the NOAEL [10, 25] was at least 407 mg/kg/day.
With `OC[C@H]1O[C@@H]2O[C@H]3[C@H](O)[C@@H](O)[C@@H](O[C@H]4[C@H](O)[C@@H](O)[C@@H](O[C@H]5[C@H](O)[C@@H](O)[C@@H](O[C@H]6[C@H](O)[C@@H](O)[C@@H](O[C@H]7[C@H](O)[C@@H](O)[C@@H](O[C@H]1[C@H](O)[C@H]2O)O[C@@H]7CO)O[C@@H]6CO)O[C@@H]5CO)O[C@@H]4CO)O[C@@H]3CO` [alpha-Cyclodextrin] the LEL [11] was 6.7 mg/kg/day, the LOAEL [11] was over 6.7 mg/kg/day and the NEL [11] was 3.8 mg/kg/day. It also gave an NOAEL [11] of at least 6.7 mg/kg/day.
